The numbers were not newly measured in US20170276668A1, “NEURAL MICROPHYSIOLOGICAL SYSTEMS AND METHODS OF USING THE SAME” (The Administrators of the Tulane Educational Fund, priority 2014, published 2017), which cites them from elsewhere.

The test system of this data set is neuronal cell death in vitro. The settings on record: cited from earlier work.

Molecules are shown by their SMILES.

Consider `O=C1[O][Pt]2([NH][C@@H]3CCCC[C@H]3[NH]2)[O]C1=O` [Oxaliplatin], for which the Neurotoxic dose was 15 µM.
